Screening data: PubChem, Broad Institute
Sampled rows, rich in hits. Any-hit rate of the full collection: about 1.8%.
RAD52 anneal inh = inhibitors of human RAD52 DNA annealing. recombinant RAD52 DNA annealing, FRET fluorescence. inhibition, % at 18.7 µM. 360,000 compounds, 0.46% hits;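 active = every replicate showing at least 50% inhibition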
Yeast UUG start = alters start codon recognition fidelity in yeast | S. cerevisiae UUG-firefly luciferase reporter, luminescence/redox ratio | activity score, % at 18.7 µM | 350,000 compounds, 0.13% hits | AID 602363;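 active = replicate mean at a twofold rise or more, about +100% in these data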;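 note: firefly luciferase made from a UUG start codon reports start codon fidelity; reporter light over untreated wells divided by growth signal over untreated wells; some hits fall short of that in this replicate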
MLL AF4-AF9 inh = MLL-AF4/AF9 protein interaction inhibition; AID 651704; inhibition, % at 10 µM; AlphaScreen, biotin-AF4 peptide binding to FLAG-AF9; P42568; 350,000 compounds, 0.47% hits;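 active = every replicate reaching a set inhibition limit, whatever the replicate mean, cut at about 25% in these data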;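 also: 0% = plate neutral control median and 100% = total signal loss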
SIRT5 inh = sirtuin-5 (human) deacylase inhibition; AID 652115; 330,000 compounds, 1.1% hits; Purified SirT5, succinyl-peptide AMC, trypsin-coupled fluorescence; Q9NXA8; inhibition, % at 15 µM; in the data active = inhibition above about 15%
RAD54 branch = RAD54 (human) branch migration inhibition | Q92698 | RAD54 Holliday junction branch migration, FAM/BHQ fluorescence | inhibition, % at 10.4 µM | 360,000 compounds, 0.14% hits;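 active = mean normalized replicate activity at least 40 and at least half of replicates scoring 40 or more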;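 also: 0% = median of neutral control wells and 100% = median of positive control wells; inhibitors cause a drop in the FAM fluorescence signal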
E-selectin induc = E-selectin induction on HUVECs; HUVEC E-selectin immunofluorescence imaging; normalized: neutral wells 0, TNF-alpha wells 100; activation, % at 7.58 µM; P16581; 260,000 compounds, 0.37% hits;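 active = mean E-selectin-positive cell signal at least 10% of the positive control, reached in at least 60% of replicates, without over 20% cell loss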
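Assay system: HUVEC primary endothelial cells. Input: 3,000 HUVEC seeded per well. Doses: one compound dose added by pin transfer. Read-out basis: % PE-positive cells. Benchmarks: TNF-alpha high, DMSO low. Detection: immunofluorescence imaging. Buffer or medium: EGM-2, gelatin.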
An asterisk follows results filed as active; / = no result given; ! = repeats disagree.

mol,Yeast UUG start,RAD52 anneal inh,MLL AF4-AF9 inh,E-selectin induc,SIRT5 inh,RAD54 branch
COc1cc(OC)c(NS(=O)(=O)c2cc(C(=O)OCC(=O)NCC3CCCO3)ccc2OC)cc1Cl (stereo not given),/,-19.3,-0.7,/,31.3*,/
O=C(N=Nc1c(O)[nH]c2ccc([N+](=O)[O-])cc12)c1cc(-c2ccccc2Cl)nc2ccccc12,/,-9.1,-1.8,9.4,22.6*,/
COc1ccc(N2CCN(Cc3cc4c(cc3Br)OCCO4)CC2)cc1,5.3,-4.5,26.9*,/,-1.8,1.2
CO[C@@H](CN(C)S(=O)(=O)c1ccc(C)cc1)[C@H](C)CN(Cc1ccccc1Cl)[C@@H](C)CO,/,4.2,-0.3,0.1,0.5,-5.2
Cc1ccc(S(=O)(=O)Nc2ccc3c(c2)CC(=O)N([C@H](C)CO)C[C@H](C)[C@@H](CN(C)CC2CCCCC2)O3)cc1,11.2,29.4,9.0,0.3,18.6*,-6.3
C[C@H](CO)N1C[C@H](C)[C@@H](CN(C)CC2CCCCC2)Oc2ccc(NS(=O)(=O)c3ccc(Cl)cc3)cc2CC1=O,-0.3,35.0,10.9,-11.1,17.7*,-9.0
Cc1ccc(S(=O)(=O)Nc2ccc3c(c2)CC(=O)N([C@H](C)CO)C[C@@H](C)[C@@H](CN(C)CC2CCCCC2)O3)cc1,-8.8,7.4,2.0,/,10.9,11.9
COc1ccc(S(=O)(=O)Nc2ccc3c(c2)CC(=O)N([C@@H](C)CO)C[C@@H](C)[C@H](CN(C)CC2CCCCC2)O3)cc1,5.6,4.8,5.3,-0.6,23.9*,4.9
COc1ccc(S(=O)(=O)Nc2ccc3c(c2)C(=O)N([C@@H](C)CO)C[C@H](C)[C@H](CN(C)CC2CC2)O3)cc1,9.1,15.9,-14.6,0.2,27.4*!,3.2
Cc1ccc(S(=O)(=O)Nc2ccc3c(c2)CC(=O)N([C@@H](C)CO)C[C@H](C)[C@H](CN(C)CC2CCCCC2)O3)cc1,-4.9,4.2,2.6,-0.7,15.8*,10.1
Cc1ccc(S(=O)(=O)Nc2ccc3c(c2)CC(=O)N([C@H](C)CO)C[C@@H](C)[C@H](CN(C)CC2CCCCC2)O3)cc1,-5.4,2.8,0.1,0.5,9.9,-0.6
C[C@H](CO)N1C[C@H](C)[C@@H](CN(C)CC2CCCCC2)Oc2ccc(NS(=O)(=O)c3ccc(F)cc3)cc2CC1=O,7.3,-1.1,1.5,-0.3,16.4*,-1.3
O=C1NC(Cc2ccc(O)cc2)c2nc3ccc(F)cc3c(=O)n2-c2cc3ccccc3cc21 (stereo not given),9.4,-9.7,2.5,0.3,28.8*,8.0
O=C1NC(=O)c2cc(Br)cc3cccc1c23,/,3.2,0.0,203.6*,5.0,/
C[C@H]1CCCCO[C@@H](CN(C)C(=O)C2CCCCC2)[C@@H](C)CN([C@@H](C)CO)C(=O)c2cc(NC(=O)CCC(F)(F)F)ccc2O1,24.8,1.3,-1.3,-0.3,8.1,-9.7
Cc1c([N+](=O)[O-])cc(C(=O)NCc2ccc(F)cc2)cc1[N+](=O)[O-],/,-9.3,-1.3,/,111.4*,/
Cc1noc(C)c1S(=O)(=O)N(C)C[C@H]1OCCCC[C@H](C)Oc2ccc(NS(=O)(=O)c3cccs3)cc2C(=O)N([C@@H](C)CO)C[C@@H]1C,-8.2,-110.3,3.7,0.0,-3.8,1.3
COCC(=O)Nc1ccc2c(c1)[C@H]1C[C@H](CC(=O)NC3CCCCC3)O[C@H](CO)[C@H]1O2,3.0,-19.9,-0.4,-0.1,-1.3,-2.2
N[C@@H](Cc1cc(I)c(O)c(I)c1)C(=O)O,-14.6,-40.3,-3.7,-0.2,32.9*,-16.4
COC(=O)C(N)Cc1ccc(O)c(O)c1 (stereo not given),-15.8,/,/,/,/,3.9
CC(=O)N1CCCCN2[C@@H](CO)[C@H](c3ccc(-c4cccc(C)c4)cc3)[C@@H]2C1,2.4,-8.5,1.9,0.0,0.6,2.7
Cc1noc(C)c1NC(=O)N(C)C[C@H]1Oc2ccc(NS(=O)(=O)c3c(C)noc3C)cc2C(=O)N([C@H](C)CO)C[C@@H]1C,-8.7,-1.8,-5.7,30.9*!,2.7,-1.8
Cc1noc(C)c1NC(=O)N(C)C[C@H]1Oc2ccc(NS(=O)(=O)c3cccs3)cc2C(=O)N([C@H](C)CO)C[C@H]1C,-9.7,-0.4,-12.7,28.7*,0.0,-2.3
C[C@H](CO)N1C[C@H](C)[C@@H](CN(C)C(=O)Nc2cccc3ccccc23)Oc2c(NS(=O)(=O)c3ccc(F)cc3)cccc2C1=O,-0.4,-7.4,2.0,-0.2,0.5,-13.8
O=C(Nc1ccc(Cl)c(Cl)c1)N[C@H]1CC[C@H](CCn2cc(C3CCCC3)nn2)O[C@H]1CO,/,3.3,5.5,0.0,0.2,/

Overlap with the part before: 4 compounds, followed by the next part.
mol,Yeast UUG start,RAD52 anneal inh,MLL AF4-AF9 inh,E-selectin induc,SIRT5 inh,RAD54 branch
Cc1noc(C)c1NC(=O)N(C)C[C@H]1Oc2ccc(NS(=O)(=O)c3c(C)noc3C)cc2C(=O)N([C@H](C)CO)C[C@@H]1C,-8.7,-1.8,-5.7,30.9*!,2.7,-1.8
Cc1noc(C)c1NC(=O)N(C)C[C@H]1Oc2ccc(NS(=O)(=O)c3cccs3)cc2C(=O)N([C@H](C)CO)C[C@H]1C,-9.7,-0.4,-12.7,28.7*,0.0,-2.3
C[C@H](CO)N1C[C@H](C)[C@@H](CN(C)C(=O)Nc2cccc3ccccc23)Oc2c(NS(=O)(=O)c3ccc(F)cc3)cccc2C1=O,-0.4,-7.4,2.0,-0.2,0.5,-13.8
O=C(Nc1ccc(Cl)c(Cl)c1)N[C@H]1CC[C@H](CCn2cc(C3CCCC3)nn2)O[C@H]1CO,/,3.3,5.5,0.0,0.2,/
O=C(c1ccccc1)N1[C@H](CO)[C@H](c2ccccc2)C12CN(CCC(F)(F)F)C2,/,-4.8,0.1,0.0,-4.8,/
Cc1cccc(S(=O)(=O)N(C)C[C@H]2OCc3ccccc3-c3c(n(C)c4ccccc34)C(=O)N([C@@H](C)CO)C[C@H]2C)c1,2.1,13.7,4.5,-0.5,4.7,2.8
C[C@@H]1CN([C@H](C)CO)C(=O)c2c(c3ccccc3n2C)-c2ccccc2CO[C@@H]1CN(C)S(=O)(=O)c1ccc(Cl)cc1,-11.3,12.0,4.8,-0.5,18.6*,-1.9
C[C@@H]1CN([C@@H](C)CO)C(=O)c2c(c3ccccc3n2C)-c2ccccc2CO[C@H]1CN(C)S(=O)(=O)c1ccc(Cl)cc1,-14.6,4.6,-0.2,-0.6,1.3,-5.9
Cc1cccc(S(=O)(=O)N(C)C[C@H]2OCc3ccccc3-c3c(n(C)c4ccccc34)C(=O)N([C@H](C)CO)C[C@H]2C)c1,-1.9,23.0,6.8,-0.4,18.4*,-5.3
C[C@H](CO)N1C[C@H](C)[C@@H](CN(C)S(=O)(=O)c2ccc(F)cc2)OCc2ccccc2-c2c(n(C)c3ccccc23)C1=O,20.4,4.1,-3.0,0.1,-3.4,1.2
C[C@H]1CN([C@@H](C)CO)C(=O)c2c(c3ccccc3n2C)-c2ccccc2CO[C@H]1CN(C)S(=O)(=O)c1ccc(F)cc1,10.1,15.9,5.9,-0.3,21.1*,3.2
C[C@@H]1CN([C@H](C)CO)C(=O)c2c(c3ccccc3n2C)-c2ccccc2CO[C@H]1CN(C)S(=O)(=O)c1ccc([N+](=O)[O-])cc1,/,7.1,6.9,-0.3,32.0*,/
C[C@]12c3[nH]c4ccc(Cl)cc4c3CCN1C(=O)[C@@H](CC(=O)NCc1cccc(C(F)(F)F)c1)C[C@@H]2C(=O)N1CCOCC1,2.2,2.3,5.2,-1.2,39.8*,-1.0
CC[C@]12c3[nH]c4ccc(Cl)cc4c3CCN1C(=O)[C@@H](CC(=O)NCCC1=CCCCC1)C[C@@H]2C(=O)N1CCN(C(=O)C2CC2)CC1,15.8,-0.1,-8.6,-0.1,17.8*,-6.6
